Results reported in US4088752A, “Oral composition for plaque and caries inhibition” (Gaba AG, priority 1974, dated 1978).

Experiment: Postmortal rat molar solubility (molar surface dissolution rate)
Format: in vivo, Osbourne-Mendel rats
Details: per mand: m1 + m2 in 10 ml 0.025 M acetate buffer pH 4, 60 min., 37° C; standard error 5.7
Protocol: 0.1 ml of the test solutions were applied once daily during the whole 20-day experimental period in which diet 2000a and tap water were available ad libitum. On day 22 the animals were superinfected twice with Streptococcus mutans OMZ 176. Caries, molar surface dissolution rate and fluoride content were assessed acccording to routine procedures.

Q: With “N-(2-hydroxyethyl)-2-heptadecen-9-yl-imidazoline orthophosphate [Example 6]” as the substance, how does the “Postmortal rat molar solubility” value read?
A: 134 μgP
